Experimental data published in PubChem BioAssay AID1224863 (Southern Research Institute, 2016).
This is a selection; strong and weak results do not stand in their true shares. Calls of active or inactive are those of the source.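 The calls were made as follows: active = highest signal at least 8 times that of the reference protease inhibitor control at some dose; inactive = the rest.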

Chains of the proteins cited; added tags and fusions are not shown.
UniProt P13569, whole entry, looked up: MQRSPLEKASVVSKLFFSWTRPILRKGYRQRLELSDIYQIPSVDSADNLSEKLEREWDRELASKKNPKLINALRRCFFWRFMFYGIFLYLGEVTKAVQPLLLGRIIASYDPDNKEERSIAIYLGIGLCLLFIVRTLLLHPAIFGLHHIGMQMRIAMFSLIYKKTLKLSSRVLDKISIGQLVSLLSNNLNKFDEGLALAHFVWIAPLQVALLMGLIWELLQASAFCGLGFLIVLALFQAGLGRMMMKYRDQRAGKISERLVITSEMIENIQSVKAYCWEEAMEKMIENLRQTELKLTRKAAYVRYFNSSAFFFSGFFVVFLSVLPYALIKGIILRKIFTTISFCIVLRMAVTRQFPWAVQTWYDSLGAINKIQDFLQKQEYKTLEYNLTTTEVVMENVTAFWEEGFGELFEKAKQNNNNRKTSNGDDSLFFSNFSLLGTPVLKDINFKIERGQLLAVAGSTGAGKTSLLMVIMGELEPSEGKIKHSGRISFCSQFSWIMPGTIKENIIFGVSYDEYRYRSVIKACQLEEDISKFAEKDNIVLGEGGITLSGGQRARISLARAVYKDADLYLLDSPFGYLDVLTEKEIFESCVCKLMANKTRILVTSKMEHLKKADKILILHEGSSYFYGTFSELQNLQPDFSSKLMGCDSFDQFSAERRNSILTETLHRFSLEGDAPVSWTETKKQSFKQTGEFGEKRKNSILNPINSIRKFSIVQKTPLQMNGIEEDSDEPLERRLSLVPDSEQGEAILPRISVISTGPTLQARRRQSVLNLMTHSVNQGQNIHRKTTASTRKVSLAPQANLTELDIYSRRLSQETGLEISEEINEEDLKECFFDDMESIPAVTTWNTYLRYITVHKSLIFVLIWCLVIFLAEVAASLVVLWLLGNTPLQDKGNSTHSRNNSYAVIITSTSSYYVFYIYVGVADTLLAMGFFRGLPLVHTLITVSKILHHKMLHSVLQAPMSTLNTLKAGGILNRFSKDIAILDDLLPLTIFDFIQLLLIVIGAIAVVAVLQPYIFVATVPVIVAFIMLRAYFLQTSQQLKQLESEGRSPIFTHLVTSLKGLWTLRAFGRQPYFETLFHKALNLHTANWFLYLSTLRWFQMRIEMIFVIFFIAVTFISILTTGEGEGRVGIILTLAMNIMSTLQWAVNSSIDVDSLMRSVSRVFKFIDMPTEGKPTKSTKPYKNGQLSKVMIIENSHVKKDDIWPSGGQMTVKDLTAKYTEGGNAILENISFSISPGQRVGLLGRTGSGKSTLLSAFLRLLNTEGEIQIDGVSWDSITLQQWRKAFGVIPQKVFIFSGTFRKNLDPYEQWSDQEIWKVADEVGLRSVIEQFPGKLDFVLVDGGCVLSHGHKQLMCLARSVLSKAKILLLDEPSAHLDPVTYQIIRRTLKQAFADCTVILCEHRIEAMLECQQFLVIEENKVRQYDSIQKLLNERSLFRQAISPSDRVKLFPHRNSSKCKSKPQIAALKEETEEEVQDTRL

molecular target: Cystic fibrosis transmembrane conductance regulator (Homo sapiens) (UniProt P13569); assay: total CFTR protein upregulators, primary screen, cell-based, HeLa F508del-CFTR, immunofluorescence, viability (AID 1224863); conditions: 24 h, library dosed in µM

| Structure (SMILES) | outcome |
| --- | --- |
| O=C(OC1CN2CCC1CC2)c1ccccc1 (centres undefined) | inactive |
| O=C(O[C@H]1CN2CCC1CC2)C1NCc2ccccc2[C@@H]1c1ccccc1 (some centres undefined) | inactive |
| O=P(O)(O)F | inactive |
| NC(=O)Nc1ccc([As](=O)(O)O)cc1 | inactive |
